Literature values as cited in US20110092532A1 (priority 2009, published 2011).
Like-named read-outs stand apart in the source and are kept apart here.

Test system: Mouse

## CN1CCc2cccc3c2[C@H]1Cc1ccc(O)c(O)c1-3 [apomorphine]
Intra-peritoneal
  Toxicity, LD50: 160 mg/kg
Intra-venous
  Toxicity, LD50: 56 mg/kg
Oral
  Toxicity, LD50: 300 mg/kg
